Drawing on patent US20060167075A1, “Modulators of FAAH” (priority 2005, published 2006), this text covers IC50 for two molecules.

Sequences of proteins named here, by UniProt entry; tags and fusion partners are left off. Residues count along the entry.
UniProt P23219, 24-599: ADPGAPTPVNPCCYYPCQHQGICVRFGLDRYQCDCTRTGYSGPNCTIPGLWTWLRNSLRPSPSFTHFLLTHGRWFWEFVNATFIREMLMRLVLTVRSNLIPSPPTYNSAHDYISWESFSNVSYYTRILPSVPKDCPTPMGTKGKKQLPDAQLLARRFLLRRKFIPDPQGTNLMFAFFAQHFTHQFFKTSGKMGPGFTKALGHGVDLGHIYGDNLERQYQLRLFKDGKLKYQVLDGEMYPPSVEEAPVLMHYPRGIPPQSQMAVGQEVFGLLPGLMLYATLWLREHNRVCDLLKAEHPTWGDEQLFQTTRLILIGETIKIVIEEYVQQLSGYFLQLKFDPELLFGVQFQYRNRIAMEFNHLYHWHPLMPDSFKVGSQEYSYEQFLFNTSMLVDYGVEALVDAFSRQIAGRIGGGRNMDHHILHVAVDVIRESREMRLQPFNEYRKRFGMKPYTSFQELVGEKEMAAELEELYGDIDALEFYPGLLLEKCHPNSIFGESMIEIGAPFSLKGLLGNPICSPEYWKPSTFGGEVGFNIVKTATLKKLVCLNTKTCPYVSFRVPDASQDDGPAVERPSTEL

The target in this assay is COX-1 (Homo sapiens, UniProt P23219). Kind of assay: cell-based.

SMILES strings stand for the structures. pIC50: −log10 of the molar value.

`Cc1onc(-c2ccccc2)c1-c1ccc(S(N)(=O)=O)cc1` [Valdecoxib, 4-(5-methyl-3-phenyl-isoxazol-4-yl)benzenesulfonamide] showed a negative-log IC50 (pIC50) of 4.00.

Turning to `CS(=O)(=O)c1ccc(C2=C(c3ccccc3)C(=O)OC2)cc1` [Rofecoxib], the pIC50 is 4.41.

The term pIC50 denotes the negative decadic logarithm of the IC50, by convention in mol/L. Low values mean a large IC50, high ones a small IC50.
